Source: patent US8586613B2, “Pyridinium and quinolinium derivatives” (Universidad de Granada, priority 2004, dated 2013)

Protein sequences, listed by entry. Tags and fused reporters are not part of them.
UniProt P35790, whole entry: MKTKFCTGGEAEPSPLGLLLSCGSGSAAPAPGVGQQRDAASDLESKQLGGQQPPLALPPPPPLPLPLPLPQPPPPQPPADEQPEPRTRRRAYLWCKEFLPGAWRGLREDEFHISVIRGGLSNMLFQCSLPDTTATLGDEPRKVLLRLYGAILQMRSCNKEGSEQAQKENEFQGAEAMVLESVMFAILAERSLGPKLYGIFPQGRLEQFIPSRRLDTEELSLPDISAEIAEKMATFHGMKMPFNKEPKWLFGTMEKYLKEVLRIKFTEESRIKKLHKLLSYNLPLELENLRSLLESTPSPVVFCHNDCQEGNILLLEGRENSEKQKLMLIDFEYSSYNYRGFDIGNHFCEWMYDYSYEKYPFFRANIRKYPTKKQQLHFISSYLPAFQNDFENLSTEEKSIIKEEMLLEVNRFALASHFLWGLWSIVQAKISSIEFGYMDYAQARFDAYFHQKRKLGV

Legend:
Human ChoK = target: T1, Human ChoK (Homo sapiens, UniProt P35790); assay: Ex vivo assay of the activity of human ChoK (recombinant choline kinase expressed in E. coli); assay type: biochemical; settings: 37° C., 30 minutes
T1 construct: made in house; host or cells: E. coli
Description: Recombinant choline kinase expressed in E. coli in the buffer assay (100 mM Tris-HCl pH 8.0, 100 mM MgCl2, 10 mM ATP and 200 μM of choline in the presence of methyl[^14C]-choline chloride (50-60 μCi/mmol)) was used for the ex vivo assays. […] The samples were washed with diethyl ether saturated with water and were lyophilized. The hydrophilic choline derivatives were resolved in thin layer chromatography plates according to a described process [Ramírez, A., Penalva, V., Lucas, L., Lacal, J. C.

HT-29 cells = assay: HT-29 cell proliferation assay (Crystal Violet); assay type: cell-based; settings: Homo sapiens, 144 h, six days of treatment
Description: The HT-29 cells were seeded in 24-well plates (35×10^3 cells/well) and were incubated for 24 hours. Then the cells were treated with different concentrations of ChoK inhibitors in the usual culture medium. Three days later, the wells were aspirated and both fresh medium and more amount of drug were added, and the cells were maintained for three more days. The quantification of the remaining cells in each well was carried out by means of the Crystal Violet method [Gillies, R. J., Didier, N., Denton, M. Anal. Biochem. 159, 109-113 (1986)], with some modifications [Hernández-Alcoceba, R., Saniger, L., Campos, J., Núñez, M. C., Khaless, F., Gallo, M. Á., Espinosa, A., Lacal, J. C. Oncogene, 15, 2289-2301 (1997)]. Briefly, the cells were washed with TD buffer and fixed with 1% glutaraldehyde for 15 minutes. After washing again with TD, the cell nuclei were coloured with 0.1% Crystal Violet for at least 30 minutes and washed three times with distilled water. The adsorbed colouring was resuspended in 10% acetic acid and the absorbance at 595 nm was determined in a spectrometer. […] This value determined by iterative curve adjustment. Two values are determined for each point of the curve, the experiment was repeated two or three times and the mean values were estimated. In the few cases in which the two values differed more than 50%, a third experiment was carried out to determine the real value. […]

## 1,1′-(biphenyl-3,3′-diylmethylene)bis[4-(3,5-dichloro-N-methylanilino)pyridinium]dibromide [Compound 4]
Human ChoK
  IC50: 2.6 µM

## CN(c1ccc(Cl)cc1)c1cc[n+](Cc2cccc(-c3cccc(C[n+]4ccc(N(C)c5ccc(Cl)cc5)c5ccccc54)c3)c2)c2ccccc12.[Br-].[Br-] [Compound 5, 1,1′-(biphenyl-3,3′-diylmethylene)bis[4-(4-chloro-N-methylanilino)quinolinium]dibromide]
Human ChoK
  IC50: 1.3 µM

## c1cc(C[n+]2ccc(N3CCCC3)cc2)cc(-c2cccc(C[n+]3ccc(N4CCCC4)cc3)c2)c1 [EC1, reference compound]
HT-29 cells
  IC50: 2.6 µM
